# Laboratory results as given in article PMC11412900 (Molecular Psychiatry, 2024).
# By UniProt entry, the sequences of proteins in these tests, tags left out.
# UniProt P08908, whole entry: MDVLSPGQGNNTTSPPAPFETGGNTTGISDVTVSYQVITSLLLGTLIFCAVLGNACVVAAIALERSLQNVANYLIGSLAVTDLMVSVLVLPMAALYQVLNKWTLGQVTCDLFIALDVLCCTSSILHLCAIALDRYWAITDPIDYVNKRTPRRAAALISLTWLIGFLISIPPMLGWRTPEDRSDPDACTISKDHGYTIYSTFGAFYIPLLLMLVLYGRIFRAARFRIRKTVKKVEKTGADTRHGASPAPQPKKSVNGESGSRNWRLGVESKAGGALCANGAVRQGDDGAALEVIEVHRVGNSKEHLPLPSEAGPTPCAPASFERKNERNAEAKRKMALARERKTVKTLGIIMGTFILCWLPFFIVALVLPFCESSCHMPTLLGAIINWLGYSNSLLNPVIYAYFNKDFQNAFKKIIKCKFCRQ
# Target: T1, h5-HT1AR (Homo sapiens, UniProt P08908)
# T1 construct: purchased Perkin Elmer, Inc. (Waltham, MA, USA)
# Experiment: Radioligand binding, [3H]8-OH-DPAT displacement
# Method: Binding assays were performed as described previously. Briefly, membrane preparations expressing h5-HT1AR, h5-HT2AR or hSERT (see Supplementary Material) were incubated with radiolabeled selective ligands 0.4 nM [^3H]8-OH-DPAT, 1 nM [^3H]ketanserin or 3 nM [^3H]imipramine, respectively. The drugs were diluted in the corresponding binding buffer and tested at increasing concentrations in duplicate. Binding reactions were performed in tubes containing the drug dilutions; 25 μl of the corresponding radioligand; and the membranes (10 μg and 5 μg/500 μL for 5-HT1AR and 5-HT2AR, respectively, and 15 μg/100 μL for hSERT), all diluted in binding buffer. […] Incubation was performed for 1 h at 27 °C for 5-HT1A/2AR and 22 °C for hSERT, according to the manufacturer’s protocol (Perkin Elmer, Inc., Waltham, MA, USA) and previous studies - saturation and kinetic experiments, respectively. The binding reactions were stopped by rapid filtration through GF/B glass microfiber filters pre-soaked with 0.5% polyethyleneimine and washing with ice-cold wash buffer. The filters were placed into vials and scintillation cocktail was added. The trapped radioactivity was quantified. Specific binding was defined as the difference between total binding (binding buffer alone) and non-specific binding. Experiments were conducted per duplicate for at least three independent experiments.
compound,measurement,value
"COc1ccc2[nH]cc(CCN(C)C)c2c1 [5-MeO-DMT, 5-methoxy-N,N-dimethyltryptamine]",Ki,2.57 ± 0.09 nM
